# Apparent affinities of Ab-91 variants for a coronavirus HR2 peptide

Reference: Engelhart et al. 2022, doi:10.1038/s41597-022-01779-4. File: FLAb, binding data.

The target is the same throughout: PDVDLGDISGINAS, from the HR2 region of SARS-CoV-2 spike.

Ab-91 is the parent antibody, in scFv form: VL, then a (GGGGS)3 linker, then VH. The light chain is unchanged in all variants.
VL: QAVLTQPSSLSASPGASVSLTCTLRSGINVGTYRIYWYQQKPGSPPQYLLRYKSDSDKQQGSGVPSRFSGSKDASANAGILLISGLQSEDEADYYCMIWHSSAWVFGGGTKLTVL
VH: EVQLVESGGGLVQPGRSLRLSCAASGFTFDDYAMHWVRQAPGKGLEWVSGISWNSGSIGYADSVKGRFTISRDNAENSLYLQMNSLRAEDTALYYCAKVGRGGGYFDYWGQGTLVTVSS

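The starting antibody came from a phage panning campaign against this peptide. In library AAYL51, one, two or three CDR residues were substituted; doubles and triples were drawn at random. The scFvs were displayed on barcoded MATa yeast, the peptide on MATalpha yeast. Binding brings cells together so that they mate, and sequencing counts the barcode pairs among the diploids. Read counts were normalised to the haploid input and turned into Kd by a linear fit to BCL2-family pairs of known affinity, for each replicate. Each pool was mated in three replicate cultures.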

Sequences are complete VH domains. Values are log10 of the apparent Kd in nM; lower means stronger binding. Averages over replicates are reported, and they cover detected replicates only. "ND" means that the variant was in the library but no mating with the target was seen in that replicate; the authors take this as a sign of poor binding, and no number exists. In this assay the parent's reference entry averaged 1.86; its copy inside this library read 0.88. Background: pairings of library AAYL51 with three empty control strains gave a value in 21% of cases (median 4.54, 5th percentile 3.26). Values in that range, when seen in few replicates, are hard to tell from nonspecific mating. The control count says in how many pairings with the empty strains this scFv gave a signal, with their mean in brackets.

VH,log10 Kd (nM) by replicate,mean log10 Kd (nM),control signals
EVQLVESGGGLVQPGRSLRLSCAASGFTFDDYAMHWVRQAPGKGLEWVSGISNNSKSIGYYDSVKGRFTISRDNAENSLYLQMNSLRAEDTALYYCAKVGRGGGYFDYWGQGTLVTVSS,ND 3.58 ND,3.58,2/9 (3.95)
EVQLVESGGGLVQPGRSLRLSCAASGFTFDDYAMHWVRQAPGKGLEWVSGISWNSGSIKYADSHKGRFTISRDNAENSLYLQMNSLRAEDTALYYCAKVGREGGYFDYWGQGTLVTVSS,ND ND ND,ND,3/9 (4.23)
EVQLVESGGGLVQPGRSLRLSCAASGFGFDDYAMHWVRQAPGKGLEWVSGISWNSGSIGYADSVKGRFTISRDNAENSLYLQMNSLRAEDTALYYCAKVGRGGSYFIYWGQGTLVTVSS,3.84 3.54 3.20,3.53,5/9 (4.02)
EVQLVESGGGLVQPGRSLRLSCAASGFTFDDYAMHWVRQAPGKGLEWVSGIYWNSGSIGYADSVKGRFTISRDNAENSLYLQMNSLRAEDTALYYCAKVGRGGGYFDYWGQGTLVTVSS,ND ND 5.23,5.23,3/9 (4.78)
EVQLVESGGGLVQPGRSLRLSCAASGFTFDDYAMHWVRQAPGKGLEWVSGISPNSGSTGYADSNKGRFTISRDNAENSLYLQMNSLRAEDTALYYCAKVGRGGGYFDYWGQGTLVTVSS,0.51 0.51 -0.07,0.32,1/9 (3.84)
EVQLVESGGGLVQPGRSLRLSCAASGQTFDDYAMHWVRQAPGKGLEWVSDISWNSGSIGYADSVKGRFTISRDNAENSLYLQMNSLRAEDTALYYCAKVGRGPGYFDYWGQGTLVTVSS,ND ND ND,ND,1/9 (4.12)
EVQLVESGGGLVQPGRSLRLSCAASGFTFDDYAMHWVRQAPGKGLEWVSGISWNSGGIGYADSVPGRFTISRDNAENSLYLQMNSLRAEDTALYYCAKVGRGHGYFDYWGQGTLVTVSS,ND ND ND,ND,1/9 (4.27)
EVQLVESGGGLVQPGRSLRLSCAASGFTFDDYAMHWVRQAPGKGLEWVSGISICEGSIGYADSVKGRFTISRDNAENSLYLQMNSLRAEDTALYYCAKVGRGGGYFDYWGQGTLVTVSS,ND ND ND,ND,3/9 (4.42)
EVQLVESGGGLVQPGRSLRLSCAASGFTFDDYARHWVRQAPGKGLEWVSGISWNSGSIGYADSVKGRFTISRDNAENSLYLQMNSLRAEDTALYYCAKVKRGGGYFLYWGQGTLVTVSS,4.71 ND ND,4.71,1/9 (3.60)
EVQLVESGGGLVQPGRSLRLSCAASGFTFDDYWMHWVRQAPGKGLEWVSGISWNSGSIGYADSFKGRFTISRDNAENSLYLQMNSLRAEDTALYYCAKVGRGGAYFDYWGQGTLVTVSS,ND ND ND,ND,0/9
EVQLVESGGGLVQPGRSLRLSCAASGFTFDVYQMHWVRQAPGKGLEWVSGISWNSGSIGYADSVKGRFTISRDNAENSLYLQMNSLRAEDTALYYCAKVGRGGGYFDYWGQGTLVTVSS,ND 5.55 ND,5.55,3/9 (4.98)
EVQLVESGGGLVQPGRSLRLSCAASGFWFDDYAMHWVRQAPGKGLEWVSGISWNSGSIGYADVVKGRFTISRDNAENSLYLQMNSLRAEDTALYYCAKVGRRGGYFDYWGQGTLVTVSS,ND 3.41 ND,3.41,0/9
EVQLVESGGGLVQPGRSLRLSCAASGFTFDDYAMHWVRQAPGKGLEWVSGIFWNSGSIGYADSVVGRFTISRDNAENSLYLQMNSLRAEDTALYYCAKVGWGGGYFDYWGQGTLVTVSS,ND ND ND,ND,0/9
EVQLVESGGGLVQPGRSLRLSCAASGFTFDDYAMHWVRQAPGKGLEWVSGISWNSGSIQYAGSVKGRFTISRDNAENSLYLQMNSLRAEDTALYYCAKVGRGGGYFDLWGQGTLVTVSS,4.98 4.30 3.94,4.41,4/9 (4.37)

Again, the first 2 entries without any signal:

VH	log10 Kd (nM) by replicate	mean log10 Kd (nM)	control signals
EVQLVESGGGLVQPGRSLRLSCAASGFTFDDYAMHWVRQAPGKGLEWVSGISWNSGSIKYADSHKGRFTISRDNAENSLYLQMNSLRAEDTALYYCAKVGREGGYFDYWGQGTLVTVSS	ND ND ND	ND	3/9 (4.23)
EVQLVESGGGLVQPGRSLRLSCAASGQTFDDYAMHWVRQAPGKGLEWVSDISWNSGSIGYADSVKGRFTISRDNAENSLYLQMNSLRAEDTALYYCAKVGRGPGYFDYWGQGTLVTVSS	ND ND ND	ND	1/9 (4.12)